IC50 data for nine compounds are collected here from ChEMBL document CHEMBL5726093, “Piperidine derivatives” (2019).

The chains behind the UniProt entries cited, without tags or fusion partners. Residues count along the entry.
UniProt P25774, 115-331 limits assumed: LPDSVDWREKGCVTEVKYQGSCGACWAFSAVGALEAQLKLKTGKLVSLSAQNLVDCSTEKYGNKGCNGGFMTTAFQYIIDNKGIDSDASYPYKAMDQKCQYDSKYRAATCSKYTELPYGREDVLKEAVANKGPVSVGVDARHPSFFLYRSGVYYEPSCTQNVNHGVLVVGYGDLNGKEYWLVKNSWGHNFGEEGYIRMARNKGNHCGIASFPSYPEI

This test has as its target Cathepsin S (Homo sapiens, UniProt P25774). The test can be described thus: Cathepsin Enzyme Inhibition Assay: Enzyme activity is measured by observing the increase in fluorescence intensity caused by cleavage of a peptide substrate containing a fluorophore whose emission is quenched in the intact peptide.Assay buffer: 100 mM potassium phosphate pH 6.5, EDTA-Na 5 mM, Triton X-100 0.001%, DTT 5 mM.Enzymes (all at 1 nM): human and mouse Cathepsin S, Cat K, Cat B, Cat L.Subs.
As to `Cc1[nH]c(-c2ccc(Cl)cc2Cl)nc1CN1CCC(n2c(=O)n(C)c3ccccc32)CC1`, the IC50 stood at 3.35 µM.

Take `Cc1[nH]c(-c2ccc(Cl)c(Cl)c2)nc1CN1CCC(n2c(=O)n(C)c3ccccc32)CC1`: the IC50 was 0.875 µM.

Turning to `Cc1[nH]c(-c2ccc(C(F)(F)F)cc2)nc1CN1CCC(n2c(=O)[nH]c3ccccc32)CC1`, 0.42 µM corresponded to half-maximal inhibition (IC50).

`Cc1ccc(-c2nc(CN3CCC(n4c(=O)[nH]c5cc(Cl)ccc54)CC3)c(C)[nH]2)cc1F` came in with an IC50 of 1.96 µM.

`Cc1[nH]c(-c2ccc(C(F)(F)F)cc2)nc1CN1CCC(n2c(=O)n(C)c3ccccc32)CC1`: half-maximal inhibition (IC50) was put at 0.28 µM.

The compound `Cc1ccc(-c2nc(CN3CCC(n4c(=O)[nH]c5cc(Cl)ccc54)CC3)c(C)[nH]2)cc1Cl` gave an IC50 of 1.02 µM.

Compound `Cc1[nH]c(-c2ccc(Cl)c(F)c2)nc1CN1CCC(n2c(=O)n(C)c3ccccc32)CC1` displayed an IC50 of 1.84 µM.

As to `Cc1oc(-c2ccc(C(F)(F)F)cc2)nc1CN1CCC(n2c(=O)n(C)c3ccccc32)CC1`, 2.54 µM corresponded to half-maximal inhibition (IC50).

As for `Cc1[nH]c(-c2ccc(C(F)(F)F)cc2)nc1CN1CCC(n2c(=O)[nH]c3cc(Cl)ccc32)CC1`, 0.245 µM corresponded to half-maximal inhibition (IC50).

As a reminder, the IC50 is the concentration at which inhibition is half-maximal. The low end stands for higher potency, the high end for lower potency.
